Values quoted from earlier work in US20200187504A1, “ENVIRONMENTALLY FRIENDLY COMPOSITIONS FOR FOLIAR AND GRANULAR CONTROL OF WEEDS” (priority 2018, published 2020).

Test system: humans
Details: 2005 carcinogen assessment guidelines; cited from earlier work

For borate salts, the “U.S. EPA carcinogenicity classification” value is listed as “not likely to be carcinogenic to humans”.
